Data published in PubChem BioAssay AID485360 (National Center for Advancing Translational Sciences (NCATS), 2010).
The entries are a selection whose mix differs from that of the whole data set. Records with an inconclusive call do not appear. Calls of active or inactive are those of the source. Calls come from the whole dose curve; as a rule, active = well fitted inhibition curve with a large enough effect; inconclusive = small, poorly fitted or top-dose-only effect; inactive = no such curve, though single readings can be large or run the other way.

Sequences of proteins named here, by UniProt entry; tags and fusion partners are left off. A change or cut given only in a name is not applied to a line headed by its entry.
UniProt Q9Y468: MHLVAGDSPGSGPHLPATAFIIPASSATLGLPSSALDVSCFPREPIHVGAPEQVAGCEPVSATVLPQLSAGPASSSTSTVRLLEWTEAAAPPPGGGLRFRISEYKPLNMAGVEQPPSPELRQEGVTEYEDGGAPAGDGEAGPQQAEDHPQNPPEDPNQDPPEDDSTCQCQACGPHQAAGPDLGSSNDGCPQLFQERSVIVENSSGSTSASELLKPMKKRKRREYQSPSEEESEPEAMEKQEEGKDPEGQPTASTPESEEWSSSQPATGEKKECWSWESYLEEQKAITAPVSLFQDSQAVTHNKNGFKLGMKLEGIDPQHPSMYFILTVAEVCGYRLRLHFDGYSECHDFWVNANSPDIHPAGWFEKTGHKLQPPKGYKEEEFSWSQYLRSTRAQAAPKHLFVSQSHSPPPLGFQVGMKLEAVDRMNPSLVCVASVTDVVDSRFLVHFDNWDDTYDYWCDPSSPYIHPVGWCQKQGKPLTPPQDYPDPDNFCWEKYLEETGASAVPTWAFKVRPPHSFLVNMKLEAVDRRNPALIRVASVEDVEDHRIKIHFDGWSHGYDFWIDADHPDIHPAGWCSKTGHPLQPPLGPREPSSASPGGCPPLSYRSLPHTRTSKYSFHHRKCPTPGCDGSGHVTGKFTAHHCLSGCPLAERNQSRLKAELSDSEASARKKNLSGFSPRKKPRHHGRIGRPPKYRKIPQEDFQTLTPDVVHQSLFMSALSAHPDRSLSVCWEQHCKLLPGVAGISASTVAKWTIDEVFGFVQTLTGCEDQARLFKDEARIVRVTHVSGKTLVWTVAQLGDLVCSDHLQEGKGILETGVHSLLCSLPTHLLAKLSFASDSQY

What follows are compounds tested against Lethal(3)malignant brain tumor-like protein 1 (Homo sapiens) (UniProt Q9Y468) (assay: qHTS Assay for the Inhibitors of L3MBTL1). Conditions: AlphaScreen L3MBTL1–H3K9me1 peptide binding.
Excerpt: The histone code is comprised of many post-translational modifications that occur mainly in histone tail peptides. The identity and location of these marks are read by a variety of histone binding proteins that are emerging as important regulators of cellular differentiation and development and are increasingly being implicated in numerous disease states. Small molecule probes that disrupt the interaction between histone binding proteins and chromatin would enable a systematic chemical biology study of proteins that read the histone code and could potentially reveal new targets for drug discovery. However, no such small molecules are known. This dearth of quality molecular probes can largely be attributed to the novelty of the target class and the lack of screening assays. This proposal details the development of the first high-throughput screening assay for the discovery of inhibitors of methyl-lysine binding proteins and how it can be be used to initiate a full-scale discovery effort for antagonists of histone binding proteins. […]
To each well, 2 uL of L3MBTL1 protein (final 50 nM) and 1 uL biotinylated histone peptide monomethylated at Lys9 [b-AHA-H3(1-15)K9me1] […] Microplates were then be read on an EnVision multilabel plate reader using the 1,536 plate HTS AlphaScreen aperture (excitation time 80 ms, measurement time 240 ms).
Note: nearly all actives have a fitted effect of over 60% in size.
Potency is the fitted concentration of half-maximal effect.

**Q.** Which Potency does the source give for `CC(CCC(C)C(C)(C)C)[C@@H]1CC[C@H]2C3C[C@H](OS(O)(=S)=S)[C@H]4C[C@H](OS(O)(=S)=S)[C@@H](OS(O)(=S)=S)C[C@]4(C)[C@H]3CC[C@]12C` (stereo partly specified) (tested in a mixture with another compound) here?
**A.** The Potency was active: 31.6 µM.
